Patent US20240165139A1, “GALACTOPYRANOSYL-CYCLOHEXYL DERIVATIVES AS E-SELECTIN ANTAGONISTS” (GLYCOMIMETICS, INC., priority 2017, published 2024)

By UniProt entry, the sequences of proteins in these tests, tags left out. Residues count along the entry.
UniProt P16581, 22-610 limits assumed: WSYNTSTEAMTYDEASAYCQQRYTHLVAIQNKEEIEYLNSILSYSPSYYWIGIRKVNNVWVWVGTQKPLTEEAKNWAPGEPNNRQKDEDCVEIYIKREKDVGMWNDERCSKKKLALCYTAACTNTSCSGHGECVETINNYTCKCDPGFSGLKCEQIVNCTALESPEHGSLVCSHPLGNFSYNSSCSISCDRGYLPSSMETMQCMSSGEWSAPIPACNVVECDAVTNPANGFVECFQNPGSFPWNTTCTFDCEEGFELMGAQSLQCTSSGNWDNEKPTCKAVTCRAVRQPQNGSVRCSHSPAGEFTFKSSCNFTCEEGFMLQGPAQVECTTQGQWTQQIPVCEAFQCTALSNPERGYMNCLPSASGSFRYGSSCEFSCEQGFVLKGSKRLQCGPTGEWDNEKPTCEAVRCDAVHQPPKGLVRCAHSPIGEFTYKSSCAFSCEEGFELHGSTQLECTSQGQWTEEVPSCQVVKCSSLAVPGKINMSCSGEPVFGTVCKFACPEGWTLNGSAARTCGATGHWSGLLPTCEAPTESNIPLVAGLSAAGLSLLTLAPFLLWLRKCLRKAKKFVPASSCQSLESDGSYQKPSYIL

Target: E-selectin (Homo sapiens, UniProt P16581)
Assay: E-Selectin Activity - competitive binding assay (sLe^a polyacrylamide conjugate vs immobilized E-selectin/Ig chimera)
Conditions: concentration required to inhibit binding of sLe^a conjugate to immobilized E-selectin/Ig chimera by 50%; tested form: Na salt

CC[C@H]1C[C@@H](C(=O)NCCNC(=O)CCOCCOCCNC(=O)[C@@H](OS(=O)(=O)O)[C@H](COS(=O)(=O)O)OS(=O)(=O)O)C[C@@H](O[C@@H]2O[C@H](CO)[C@H](O)[C@H](O[C@@H](CC3CCCCC3)C(=O)O)[C@H]2NC(C)=O)[C@@H]1O[C@@H]1O[C@@H](C)[C@@H](O)[C@@H](O)[C@@H]1O
IC50: 136 nM

CC[C@H]1C[C@@H](C(=O)NCCNC(=O)CCOCCOCCNC(=O)[C@@H](OS(=O)(=O)O)[C@@H](COS(=O)(=O)O)OS(=O)(=O)O)C[C@@H](O[C@@H]2O[C@H](CO)[C@H](O)[C@H](O[C@@H](CC3CCCCC3)C(=O)O)[C@H]2NC(C)=O)[C@@H]1O[C@@H]1O[C@@H](C)[C@@H](O)[C@@H](O)[C@@H]1O
IC50: 106 nM
